# Measured values reported in PubChem BioAssay AID720641 (ICCB-Longwood Screening Facility, Harvard Medical School, 2013).
# Only a part is listed here, and it is no random draw. Some of these compounds have results that are not shown, active ones among them. Active and inactive are the calls of the source.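 How the source made its calls: active means relative growth at most 50% at the other temperature and 20+ points below 30 °C, or under 10% at both; inactive means the rest, inconclusive results apart.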
# Experiment: Staphylococcus aureus RN4220 growth blockers – two temperatures, LtaS inhibitor project, primary screen (AID 720641)
# Settings: S. aureus RN4220 growth, OD600, 20 h, 42 °C; hits give low values
row,SMILES,relative growth
1,O=C(NCC1(N2CCCCC2)CCCCC1)c1ccc2c(c1)OCCO2,inactive: 87.7%
2,CC(C)Oc1ccc(C(=O)NCC2(N(C)C)CCCCC2)cc1,inactive: 104%
3,COc1cc(C(=O)NCC2(N(C)C)CCCCC2)cc(OC)c1OC,inactive: 116%
4,Cc1cccc(C(=O)NCC2(N(C)C)CCCCC2)c1,inactive: 113%
5,CN1C2CCC1CC(OC(=O)C(O)(c1ccccc1)c1ccccc1)C2 (centres undefined),inactive: 104%
6,CC(C)COc1ccc(C(=O)NCC2(N(C)C)CCCCC2)cc1,inactive: 91%
7,O=C(OC1CN2CCC1CC2)C(CO)(c1ccccc1)c1ccccc1 (centres undefined),inactive: 106%
8,COc1cccc(C(=O)NCC2(N3CCOCC3)CCCCC2)c1,inactive: 114%
9,COc1ccc(C(=O)NCC2(N(C)C)CCCCC2)cc1Cl,inactive: 115%
10,CN(C)C1(CNC(=O)c2ccncc2)CCCCC1,inactive: 114%
11,N#CC(C#N)=Cc1ccccc1,inactive: 52.5%
12,CCOc1cccc(C(=O)NCC2(N(C)C)CCCCC2)c1,inactive: 96.1%
13,COc1ccc(OC)c(C=C(C#N)C#N)c1,inactive: 94.7%
14,CCCCOc1ccccc1C(=O)NCC1(N(C)C)CCCCC1,inactive: 108%
15,CN(C)C1(CNC(=O)c2ccccc2[N+](=O)[O-])CCCCC1,inactive: 96.6%
16,CN(C)c1ccc(C(=O)NCC2(N(C)C)CCCCC2)cc1,inactive: 75.7%
17,CN(C)C1(CNC(=O)c2ccccc2F)CCCCC1,inactive: 100%
18,CN(C)C1(CNC(=O)c2cccc(Cl)c2)CCCCC1,inactive: 113%
19,O=C(NCC1(N2CCOCC2)CCCCC1)c1cnc(Cl)c(Cl)c1,inactive: 83.1%
